Measurements reported in patent US11713331B2, “Benzene 1,4-bis(bisphosphonic acid)-based metal complexes, method of synthesis and applications thereof” (priority 2020, dated 2023).

Columns and labels:
[1] = Binding assay to hydroxyapatite (HA); conditions: 0.5 mg/mL, 20 mg HA, PBS
Protocol: Hydroxyapatite (HA) treatment. […] The experiment was carried out for 0-12 days, in stirring at 120 rpm. […] The supernatant was centrifuged for 8 min (500 rcf) and the absorbance was measured at 231 nm. Solid samples were characterized by SEM-EDS, TGA, and PXRD.
A suspension of HA in PBS and a solution of BBPA in PBS (without HA) were employed as control groups. […] The binding curves of these materials were contrasted with the one before reported for Alendronic acid (ALEN).
The experiment was carried out for 0-12 days, in constant stirring at 120 rpm. […] The supernatant was centrifuged for 8 min (500 rcf) and the absorbance was measured at 231 nm. Solid samples were characterized by SEM-EDS and PXRD.

[2] = Dissolution profile in fasted-state simulated gastric fluid (release of BBPA); type: physicochemical; conditions: FaSSGF pH 1.60, 37° C.
[3] = Dissolution profile in phosphate-buffered saline (release of BBPA); type: physicochemical; conditions: PBS pH 7.40, 37° C.
[4] = test system: normal osteoblast-like hFOB 1.19 cell line
Protocol: (§1) Cell Culture Methods. Media with DMEM, 5% FBS, and 1% Pen-Strep were used to incubate MDA-MB-231 cells at 37° C. with 5% CO2. The osteoblast hFOB 1.19 cell line was incubated at 34° C., 5% CO2, in 1:1 DMEM:F-12 supplemented with 0.3 mg/mL G418, and 10% FBS. Cell passages were performed weekly at 80.0% confluency. Media exchanges were carried out twice every 7 d.
(§2) Cell treatment. […] Cells (MDA-MB-231, hFOB 1.19) were seeded in 96 well plates at a density of 2.5×10^5 cells/mL. The 96 well plates were incubated at 37° C. with 5% CO2 for 24 h. Three 96 well plates were prepared per time point (24, 48, and 72 h). […] Cells were incubated at 37° C. and 5% CO2 for 24, 48, and 72 h. Control groups were treated with media (MDA-MB-231 with DMEM, 1% Pen-Strep) and (hFOB 1.19 with 1:1 DMEM:F-12, 0.3 mg/mL G418). Cell proliferation was determined after each point time of treatment. A 10% AlamarBlue® solution was previously prepared using PBS. The media was removed from all 96 well plates and 100 μL of AlamarBlue® solution was added. The 96 well plates were incubated for 4 h (MDA-MB-231 at 37° C., 5% CO2) and (hFOB 1.19 at 34° C., 5% CO2). The fluorescence was measured at 560 nm of excitation and lambda max 590 nm of emission. […] The experiments for the % RCL were performed employing the same conditions previously mentioned for the IC50 determination. All experiments were accomplished in triplicate. The GraphPad Prism 8 vs 8.3.1 was utilized to generate the IC50 curves and to plot the % RCL graphs.
(§3) Furthermore, the cytotoxicity of these materials was also achieved using the osteoblast-like hFOB 1.19 cell line, within work, these immortalized human cells were used to simulate the human bone microenvironment (not cancerous cells). […] Control groups were treated with media (DMEM, 1% Pen-Strep, MDA-MB-231) and (1:1 DMEM:F12, 0.3 mg/mL G418, hFOB 1.19), respectively. AlamarBlue® assay was employed to determine cell proliferation after each time point.
(§4) Cell Culture Methods—Media with DMEM, 5% FBS, and 1% Pen-Strep were used to incubate MDA-MB-231 cells at 37° C. with 5% CO2. The osteoblast hFOB 1.19 cell line was incubated at 34° C., 5% CO2 in 1:1 DMEM:F-12 supplemented with 0.3 mg/mL G418, and 10% FBS. Cell passages were performed weekly at 80.0% confluency. Media exchanges were carried out twice every 7 d.
(§5) Cell seeding—Both cells were seeded in 96 well plates at a density of 2.5×10^5 cells/mL. The 96 well plates were incubated at 37° C. (MDA-MB-231) and 34° C. […] Experiments were performed in triplicate.
(§6) (MDA-MB-231) and 34° C. […] All experiments were accomplished in triplicate.

[5] = test system: human breast cancer MDA-MB-231 cell line
Protocol: as §1, §2, §3, §4, §5, §6

[6] = 150 rpm, 0 h (aliquot before addition)

benzene 1,4-bis(bisphosphonic acid) [BBPA]
% Binding to HA ([1]; 7 d): > 95% and 96%
% Binding to HA ([1]; 8 d): 97%
% Binding to HA ([1]; 9 d): 98%
% Binding to HA ([1]; 11 d): 100%
% Binding to HA ([1]; 12 d): 100%
% Released (BBPA) [2, 6]: 0%
% Released (BBPA) ([2]; 0.25 h): 86%
% Released (BBPA) ([2]; 0.5 h): 87%
% Released (BBPA) ([2]; 1 h): 88.6%
% Released (BBPA) ([2]; 3 h): 93%
% Released (BBPA) ([2]; 5 h): 100% and 94%
% Released (BBPA) ([2]; 24 h): 98%
% Released (BBPA) ([2]; 48 h): 98%
% Released (BBPA) [3, 6]: 0%
% Released (BBPA) ([3]; 0.25 h): 95%
% Released (BBPA) ([3]; 0.5 h): 95%
% Released (BBPA) ([3]; 1 h): 96%
% Released (BBPA) ([3]; 3 h): 98%
% Released (BBPA) ([3]; 5 h): 100% and 98%
% Released (BBPA) ([3]; 24 h): 98%
% Released (BBPA) ([3]; 48 h): 100%
% Released (BBPA) ([3]; 72 h): 100%
cytotoxicity (in words) ([4]; hFOB 1.19, 0-200 μM): no cytotoxic; also recorded: No cytotoxicity effect was observed
relative cell live (% RCL) ([4]; hFOB 1.19, 0-200 μM, at each measured time (24, 48, 72 h)): > 90%
cytotoxicity (in words) ([4]; hFOB 1.19, 1.9-15 μM, 24-72 h): no significant cell death
cytotoxicity (in words) ([5]; MDA-MB-231, 0-200 μM): no cytotoxic; also recorded: No cytotoxicity effect was observed
relative cell live (% RCL) ([5]; MDA-MB-231, 0-200 μM, at each measured time (24, 48, 72 h)): > 90%
cytotoxicity (in words) ([5]; MDA-MB-231, 1.9-15 μM, 24-72 h): no significant cell death

“And” between values parts separate entries of the source, which are not always exact repeats. Equal values may be shown once. “Also recorded” adds a separate entry of the source. Read-outs that look alike come from different tables or passages of the source.
